Results on 1 molecule are retold here after paper PMC11217338, “Cannabidiol promotes intestinal cholesterol uptake mediated by Pregnane X receptor” (Frontiers in Endocrinology, 2024).

Protein sequences, listed by entry. Tags and fused reporters are not part of them. Lines headed by an entry give the natural chain unless they say otherwise; changes in a name come on top.
UniProt O75469: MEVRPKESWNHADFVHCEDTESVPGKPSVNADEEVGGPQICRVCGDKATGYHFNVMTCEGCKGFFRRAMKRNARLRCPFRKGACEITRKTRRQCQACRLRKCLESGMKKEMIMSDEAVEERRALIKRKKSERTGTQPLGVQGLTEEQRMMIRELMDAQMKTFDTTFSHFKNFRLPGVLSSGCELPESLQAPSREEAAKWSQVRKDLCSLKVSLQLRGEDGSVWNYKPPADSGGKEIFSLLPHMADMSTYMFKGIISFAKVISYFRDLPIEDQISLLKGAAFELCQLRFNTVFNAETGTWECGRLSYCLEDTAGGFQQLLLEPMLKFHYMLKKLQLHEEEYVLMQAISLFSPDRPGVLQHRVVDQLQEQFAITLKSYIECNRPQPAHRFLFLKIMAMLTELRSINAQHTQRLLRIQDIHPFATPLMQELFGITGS

The target of the test is T1, human Pregnane X receptor (hPXR) (Homo sapiens, UniProt O75469).
T1 construct: gene NR1I2
The test can be described thus: CYP3A4-luciferase reporter transactivation in transfected HepG2 cells (also LS180, EC50 […]); GAL4-LBD panel; mammalian two-hybrid co-repressor dissociation; site-directed mutagenesis. On the technique in general: Reporter assays use an easily measured gene product as a stand-in for the process of interest.

As to `C=C(C)[C@@H]1CCC(C)=C[C@H]1c1c(O)cc(CCCCC)cc1O` [CBD, Cannabidiol], it took 5.1 µM to reach a half-maximal effect (EC50).

The term EC50 denotes the concentration needed to bring the measured effect to its halfway point. A higher EC50 goes with a need for much substance.
